# Reference: PubChem BioAssay AID2058 (Sanford-Burnham Center for Chemical Genomics, 2009)
# Sequences of proteins named here, by UniProt entry; tags and fusion partners are left off.
# UniProt Q9HC97, whole entry: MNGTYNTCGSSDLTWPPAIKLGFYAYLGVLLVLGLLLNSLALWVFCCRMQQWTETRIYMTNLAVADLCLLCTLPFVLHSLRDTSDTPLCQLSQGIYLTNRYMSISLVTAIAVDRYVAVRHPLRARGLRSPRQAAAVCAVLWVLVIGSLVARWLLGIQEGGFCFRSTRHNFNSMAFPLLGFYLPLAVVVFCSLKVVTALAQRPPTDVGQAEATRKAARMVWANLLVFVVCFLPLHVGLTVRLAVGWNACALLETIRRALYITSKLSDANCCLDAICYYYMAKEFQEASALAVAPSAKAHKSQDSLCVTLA
# The list shows a part of the results, in another mix than the full data. Measured potencies and affinities stand elsewhere. Some salts and complexes are drawn in separate pieces, as the source files them; their charges need not balance. The source made the active and inactive calls.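 Rule for the calls: active = inhibition of at least 50% with at least 30 cells and total cytoplasm GFP at most 10,000,000; inconclusive = under 30 cells or total GFP of 10,000,000 plus; inactive = the rest.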
# Target: G-protein coupled receptor 35 (Homo sapiens) (UniProt Q9HC97)
# Experiment: GPR35 antagonists blocking zaprinast-driven arrestin recruitment, primary screen, imaging, U2OS, beta-arrestin-GFP, zaprinast agonist (AID 2058)
# Conditions: U2OS GPR35 beta-arrestin-GFP translocation imaging, zaprinast antagonism; at 10 µM; stronger effect = higher value
row,SMILES,inhibition
1,O=C(OC1CN2CCC1CC2)c1ccc([N+](=O)[O-])cc1 (stereo not given),inactive: 7.6%
2,O=C(OCCN1CCN(CCOCc2ccccc2)CC1)C(O)(c1ccccc1)c1ccccc1,inactive: 4%
3,COc1ccc2c(c1O)-c1c(O)c(OC)cc3c1[C@H](C2)[N+](C)(C)CC3.O=[N+]([O-])c1cc([N+](=O)[O-])c([O-])c([N+](=O)[O-])c1[O-],inactive: -6.7%
4,CP(=O)(Nc1ccccc1F)Oc1ccccc1 (stereo not given),inactive: -13.2%
5,CC(C)c1ccc(OP(C)(=O)Nc2ccc(SC(F)(F)F)cc2)cc1 (stereo not given),inactive: 3.3%
6,CCN(CC)CCCOC(=O)C(O)(c1ccccc1)C1CCCCC1 (stereo not given),inactive: -4.7%
7,CP(=O)(Nc1ccccc1)Oc1ccc(F)cc1 (stereo not given),inactive: -11.1%
8,CCCCCOc1ccc(NP(C)(=O)Oc2ccc(Cl)cc2Cl)cc1 (stereo not given),inactive: 6.3%
9,O=[N+]([O-])c1cc([N+](=O)[O-])c(OC2CCCCC2O)c([N+](=O)[O-])c1 (stereo not given),inactive: -16.1%
10,CCOC(=O)c1ccc(NP(C)(=O)Oc2ccc(F)cc2)cc1 (stereo not given),inactive: 8.6%
11,COc1ccc(OP(C)(=O)Nc2ccc(SC(F)(F)F)cc2)cc1 (stereo not given),inactive: -14.6%
12,O=[N+]([O-])c1ccc(OP2(=O)COCCO2)cc1 (stereo not given),inactive: 0.9%
13,Cc1cc(-c2cccc3ccccc23)c(C)cn1.O=[N+]([O-])c1cc([N+](=O)[O-])c(O)c([N+](=O)[O-])c1,inactive: -9.4%
14,O=[N+]([O-])c1cc([N+](=O)[O-])c(NCC2CCS(=O)(=O)C2)c([N+](=O)[O-])c1 (stereo not given),inactive: 9.6%
15,COc1ccc(OP(C)(=O)Nc2cccc(Br)c2)cc1 (stereo not given),inactive: 4.8%
16,CN(C)CCOC(=O)C(O)(c1ccccc1)C1CCCCC1 (stereo not given),inactive: 19.8%
17,COc1ccc(NP(C)(=O)Oc2ccccc2OC)cc1 (stereo not given),inactive: -9.9%
18,CP(=O)(Nc1ccc2c(c1)OCCO2)Oc1ccccc1 (stereo not given),inactive: -12.9%
19,Cc1ccccc1NP(C)(=O)Nc1ccccc1C,inactive: -2%
20,CP(=O)(Nc1ccc(SC(F)(F)F)cc1)Oc1ccc(F)cc1 (stereo not given),inactive: -15.6%
21,CCOP(C)(=S)SCC(=O)NC(C)(CC)C(=O)O (stereo not given),inactive: -10.2%
22,CC(C)(C)c1ccc(OP(C)(=O)O)cc1,inactive: -1.3%
23,COc1ccccc1OP(C)(=O)Nc1ccccc1Br (stereo not given),inactive: -10.3%
24,CP(=O)(Nc1ccc(Cl)cc1)Oc1ccc(F)cc1 (stereo not given),inactive: -4.3%
25,CN(C)C(=O)c1c([N+](=O)[O-])cc([N+](=O)[O-])cc1[N+](=O)[O-],inactive: -13.3%
